Results published in patent US20020115111A1, “Compounds” (SmithKline Beecham Corporation, priority 1994, published 2002).

Molecular target: high affinity rolipram binding form of PDE IV (HPDE IV)
Assay: [3H]-rolipram binding assay (competition for high affinity site)
Set-up: species or system rat
Details: competition with 1 nM [3H]-rolipram, 1 hour at 30° C.
Procedure: Inhibition of PDE IV catalytic activity can thus be used as an index of the potency of compounds at LPDE IV.
The assay was run for 1 hour at 30° C. The reaction was terminated and bound ligand was separated from free ligand using a Brandel cell harvester. Competition for the high affinity binding site was assessed under conditions that were identical to those used for measuring low affinity PDE activity, expect that [^3H]-cAMP was not present.

COc1ccc(Cc2nccc3cc(OC)c(OC)cc23)cc1OC [Papaverine, 1-[(3,4-dimethoxyphenyl)methyl]-6,7-dimethoxyisoquinoline, reference compound]
IC50: 10 µM
